Counter-ions that a name gives are not always drawn.

One assay concerns the target ecNOS (Homo sapiens, UniProt P29474). The assay is described as follows: NOS activity assay, ecNOS (L-[3H]citrulline formation). Format: biochemical.
The target of another assay is iNOS (Homo sapiens, UniProt P35228). The assay is described as follows: NOS activity assay, iNOS (L-[3H]citrulline formation). Format: biochemical.
The target in the next assay is ncNOS (Homo sapiens, UniProt P29475). The assay can be described thus: biochemical.

What is called IC50 is the concentration needed to halve the response being measured. Low readings indicate higher potency, high ones lower potency. `NC1=NCC2CCCCC12` (centres unmarked) [Table 4: (CH2)4, H, H, H, 2-Imino-3-azabicyclo(4.3.0)nonane hydrochloride]: the IC50 against ecNOS is at most 50 µM; at iNOS it was at most 10 µM.

On to `CC1CCC(N)=NC1` (centres unmarked) [Table 5: CH2, H, H, CH3, H, H, H, 2-Imino-5-methylpiperidine hydrochloride], for which the IC50 on ncNOS is at most 10 µM.

On ecNOS, `CC1CC(N)=Nc2ccccc21` (centres unmarked) [Table 5: CH, H, CH3, (CH)4, H, H] registered an IC50 of at most 50 µM.

With `C[C@@H]1CCC(=N)NC1` [Table 5: CH2, H, H, (R)CH3, H, H, H, 5(R)-Methyl-2-iminopiperidine hydrochloride], on ncNOS, the IC50 was at most 10 µM.

Compound `C[C@H]1CCC(=N)NC1` [Table 5: CH2, H, H, (S)CH3, H, H, H, 5(S)-Methyl-2-iminopiperidine hydrochloride] came in with an IC50 against ncNOS of at most 10 µM.

Turning to `NC1=NCC2CCCC12` (centres unmarked) [Table 4: (CH2)3, H, H, H, 2-Imino-3-azabicyclo(3.3.0)octane hydrochloride], the IC50 on ecNOS and at iNOS was at most 10 µM in each case.

The values are drawn from patent US5629322A, “Cyclic amidine analogs as inhibitors of nitric oxide synthase” (priority 1995, dated 1997).
